Patent US20130189203A1, “COSMETIC ADDITIVES CONTAINING ALKALI PHOSPHATES” (BK Giulini GmbH, priority 2012, published 2013)

Test: stability of the sun protection formulations with additive

Sodium polyphosphate [Carephos N]
stability of the formulation with the additive: stable
